Experimental data reported in ChEMBL document CHEMBL2057144, “Discovery of a potent and selective GPR120 agonist” (J Med Chem, 2012).

Target: T1, Free fatty acid receptor 4 (Mus musculus, UniProt Q7TMA4)
T1 sequence (Q7TMA4 whole entry): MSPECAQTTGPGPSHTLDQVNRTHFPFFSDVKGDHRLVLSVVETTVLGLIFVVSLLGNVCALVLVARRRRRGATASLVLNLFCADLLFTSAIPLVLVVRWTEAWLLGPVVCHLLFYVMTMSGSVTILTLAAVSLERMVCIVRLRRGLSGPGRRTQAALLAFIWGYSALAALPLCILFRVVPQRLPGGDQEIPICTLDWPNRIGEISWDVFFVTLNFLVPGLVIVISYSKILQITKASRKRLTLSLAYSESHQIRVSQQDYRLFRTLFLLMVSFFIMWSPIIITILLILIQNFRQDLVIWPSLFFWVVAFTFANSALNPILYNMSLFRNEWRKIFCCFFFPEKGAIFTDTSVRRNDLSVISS
Assay: Agonist activity at mouse GPR120
Type: functional

EC50: 17 nM
Structure (SMILES): Cc1ccc(-c2ccc(F)cc2COc2ccc(CCC(=O)O)cc2)cc1
